Laboratory results: patent publication US5519029A, “2-aminoalkyl-5-aminoalkylamino substituted-isoquinoindazole-6(2H)-ones” (Boehringer Mannheim Italia, S.p.A., priority 1993, dated 1996)

How the values were obtained:
Lovo/DX = assay: MTT cytotoxicity assay, multidrug-resistant subline Lovo/DX; type: cell-based, human; settings: ratio of the IC50 for the resistant line cell to the IC50 for the sensitive cell line
Method: The evaluation of the biological activity for the compounds of this invention was performed in vitro and in vivo following the protocols developed by the U.S. National Cancer Institute.
The evaluation of the in vitro cytotoxic activity of the compounds of the invention was performed using a human colon adenocarcinoma cell line (Lovo) isolated from a metastatic nodule, and a subline expressing multidrug resistance. The subline is resistant to a number of antitumor agents, among which are doxorubicin, VP-16, and vincristine.

[1] = tested on: cell histotypes developing resistance against doxorubicin mediated by overexpression of glycoprotein P; settings: doxorubicin-resistant cells; cited from earlier work

O=C1c2c(O)ccc(O)c2C(=O)c2c(NCCNCCO)ccc(NCCNCCO)c21 [MITOXANTRONE, 5,8-dihydroxy-1,4-bis{[2-(2-hydroxyethylamino)ethyl]amino}anthracene-9,10-dione]
RI (resistance index) (Lovo/DX): 22.5
cross-resistance (in words) [1]: cross-resistance
